# Values of other authors in US5322772A (Children's Research Institute, priority 1991, dated 1994).
# Molecular target: FKBP
# Conditions: FKBP isolated from yeast, calf thymus and human T cells (JURKAT); cited from earlier work
structure (smiles),measurement,value
"CO[C@H]1C[C@@H]2CC[C@@H](C)[C@@](O)(O2)C(=O)C(=O)N2CCCC[C@H]2C(=O)O[C@H]([C@H](C)C[C@@H]2CC[C@@H](O)[C@H](OC)C2)CC(=O)[C@H](C)/C=C(\C)[C@@H](O)[C@@H](OC)C(=O)[C@H](C)C[C@H](C)/C=C/C=C/C=C/1C [RAP, Rapamycin]",Kd,~200 pM
